The numbers were not newly measured in PMC4291147, “Molecular Basis of Histone Tail Recognition by Human TIP5 PHD Finger and Bromodomain of the Chromatin Remodeling Complex NoRC” (Structure(London, England:1993), 2015), which cites them from elsewhere.

Like-named read-outs stand apart in the source and are kept apart here.

Data set [1] concerns the target Histone H4 K16ac peptide (Homo sapiens) (UniProt P62805).
Data set [2] has the same target. This is another data set of the same source.

Usually Kd stands for a measure of binding affinity in units of concentration. With BPTF BRD (from UniProt Q12830), the Kd in data set [1] and in data set [2] was 99 µM each time.
